The record followed here is patent US20240270720A1, “INDAZOLE YL BENZIMIDAZOLE DERIVATIVE OR PHARMACEUTICALLY ACCEPTABLE SALT THEREOF, AND USE THEREOF” (INDUSTRY-UNIVERSITY COOPERATION FOUNDATION HANYANG …, priority 2021, published 2024).

Amino acid sequences for entries named in this document (tags omitted). A change or cut given only in a name is not applied to a line headed by its entry. Residues count along the entry.
UniProt P11802: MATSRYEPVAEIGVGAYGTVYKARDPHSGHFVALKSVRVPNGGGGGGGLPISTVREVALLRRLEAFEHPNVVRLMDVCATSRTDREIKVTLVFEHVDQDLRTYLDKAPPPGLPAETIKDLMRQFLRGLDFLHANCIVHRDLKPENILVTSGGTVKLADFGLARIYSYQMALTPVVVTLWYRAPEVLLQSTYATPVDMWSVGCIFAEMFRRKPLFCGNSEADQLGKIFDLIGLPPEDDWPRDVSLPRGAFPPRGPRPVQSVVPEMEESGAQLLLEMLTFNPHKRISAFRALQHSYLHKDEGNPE
UniProt P17948, 27-1338: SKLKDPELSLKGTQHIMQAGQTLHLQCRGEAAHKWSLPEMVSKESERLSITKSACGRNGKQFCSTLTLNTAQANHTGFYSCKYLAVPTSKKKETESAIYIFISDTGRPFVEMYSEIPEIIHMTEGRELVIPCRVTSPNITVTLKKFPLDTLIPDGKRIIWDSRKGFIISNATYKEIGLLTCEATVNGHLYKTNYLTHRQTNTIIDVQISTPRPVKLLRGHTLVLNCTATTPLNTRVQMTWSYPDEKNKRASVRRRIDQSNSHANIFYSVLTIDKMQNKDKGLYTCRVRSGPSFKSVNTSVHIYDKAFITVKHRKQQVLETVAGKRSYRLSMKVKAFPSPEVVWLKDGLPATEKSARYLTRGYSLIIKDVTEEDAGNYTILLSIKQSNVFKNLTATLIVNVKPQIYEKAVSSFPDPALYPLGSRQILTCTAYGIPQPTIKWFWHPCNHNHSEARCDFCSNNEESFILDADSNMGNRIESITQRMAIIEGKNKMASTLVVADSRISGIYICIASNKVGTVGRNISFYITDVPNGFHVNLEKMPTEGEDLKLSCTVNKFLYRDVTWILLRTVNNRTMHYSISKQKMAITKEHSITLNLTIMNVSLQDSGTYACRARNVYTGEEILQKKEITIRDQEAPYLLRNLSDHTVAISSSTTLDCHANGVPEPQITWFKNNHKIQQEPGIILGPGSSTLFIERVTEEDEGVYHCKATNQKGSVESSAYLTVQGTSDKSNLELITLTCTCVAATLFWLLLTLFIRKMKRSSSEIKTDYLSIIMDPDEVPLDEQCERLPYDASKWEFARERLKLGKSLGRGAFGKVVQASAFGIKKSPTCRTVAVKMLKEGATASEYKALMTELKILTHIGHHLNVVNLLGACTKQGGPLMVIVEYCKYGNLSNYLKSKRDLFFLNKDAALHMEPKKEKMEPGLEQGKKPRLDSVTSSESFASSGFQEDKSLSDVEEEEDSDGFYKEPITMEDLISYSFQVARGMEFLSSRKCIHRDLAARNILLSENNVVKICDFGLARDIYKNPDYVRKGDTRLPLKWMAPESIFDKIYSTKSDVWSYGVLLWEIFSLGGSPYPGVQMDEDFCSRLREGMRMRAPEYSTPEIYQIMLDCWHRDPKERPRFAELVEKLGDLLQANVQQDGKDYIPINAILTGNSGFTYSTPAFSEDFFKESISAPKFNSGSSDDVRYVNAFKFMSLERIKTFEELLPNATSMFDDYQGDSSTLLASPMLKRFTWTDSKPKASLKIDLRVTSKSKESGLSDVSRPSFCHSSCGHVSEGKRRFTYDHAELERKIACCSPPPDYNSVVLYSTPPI

One assay concerns the target CDK4/cyclin D1 (Homo sapiens, UniProt P11802). The experiment in a line: biochemical.
In the next assay the target is FLT1/VEGFR1 (Homo sapiens, UniProt P17948). The experiment in a line: biochemical.

Take `CCN1CCN(Cc2cc(C(=O)Nc3ccc4[nH]c(-c5ccc6cn[nH]c6c5)nc4c3)cc(C(F)(F)F)c2)CC1` [Compound 8r, N-(2-(1H-indazol-6-yl)-1H-benzo[di]imidazol-5-yl)-3-((4-ethylpiperazin-1-yl)methyl)-5-(trifluoromethyl)benzamide]: the inhibition at 1 µM is 8.26% on CDK4/cyclin D1 and 6% against FLT1/VEGFR1.

Usually inhibition stands for the change of the read-out against control, counted positive when it falls. Lower therefore signals little suppression.
